AlphaSeq binding of Ab-14 heavy chain variants to a spike HR2 peptide

Reference: Engelhart et al. 2022, doi:10.1038/s41597-022-01779-4. File: FLAb, binding data.

All variants were tested on one target, the spike HR2 peptide PDVDLGDISGINAS (SARS-CoV-2).

Each scFv is VH, the linker GGGGSGGGGSGGGGS, VL, as in the parent Ab-14, and differs from it in the CDRs of the heavy chain only.
VH: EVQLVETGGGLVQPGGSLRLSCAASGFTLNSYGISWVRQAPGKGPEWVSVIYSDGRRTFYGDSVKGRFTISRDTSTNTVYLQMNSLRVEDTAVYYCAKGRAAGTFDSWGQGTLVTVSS
VL: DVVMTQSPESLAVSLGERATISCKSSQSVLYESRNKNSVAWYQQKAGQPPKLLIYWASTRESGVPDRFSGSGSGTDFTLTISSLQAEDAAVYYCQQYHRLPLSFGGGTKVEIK

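Phage display of a naive human antibody library on the peptide gave the parent. Variants in AAYL49 differ from the parent at up to three CDR positions; double and triple changes were sampled at random. Affinity was read by AlphaSeq, a pooled yeast mating assay with surface-displayed partners. Binding brings cells together so that they mate, and sequencing counts the barcode pairs among the diploids. Scores were corrected for input abundance and mapped to Kd with protein pairs of known affinity run in the same pool. Each pool was mated in three replicate cultures.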

Sequences are complete VH domains. All variants listed here change F59 of the VH, counted from its first residue. Values are apparent Kd, the geometric mean of the replicates that gave a signal; lower means stronger binding. "no signal" means that the variant was in the library but no mating with the target was seen in any replicate; the authors take this as a sign of poor binding, and no number exists. Background: pairings of library AAYL49 with three empty control strains gave a value in 15% of cases (median 11 µM, 5th percentile 680 nM). Values in that range, when seen in few replicates, are hard to tell from nonspecific mating.

- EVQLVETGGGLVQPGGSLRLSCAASGFTLNSYGISWVRQAPGKGPEWVSVFYSDGRRTNYGDSVKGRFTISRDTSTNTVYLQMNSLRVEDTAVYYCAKGRAAGTFDGWGQGTLVTVSS -> no signal (0 of 3 replicates)
- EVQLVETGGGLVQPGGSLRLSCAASGFTLNSYGISWVRQAPGKGPEWVSVIYSDGRMTSYGDSVKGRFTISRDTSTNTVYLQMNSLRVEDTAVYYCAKGRNAGTFDSWGQGTLVTVSS -> 230 nM (3 of 3 replicates)
- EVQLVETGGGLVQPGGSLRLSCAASGFTLNSYGLSWVRQAPGKGPEWVSVIYSDGRRTAYGDSVKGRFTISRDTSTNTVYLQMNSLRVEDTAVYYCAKGRAAGTQDSWGQGTLVTVSS -> 27 nM (3 of 3 replicates)
- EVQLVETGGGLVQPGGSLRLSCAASGFTLNSYGWSWVRQAPGKGPEWVSVIYSDGRRTVYGDSVKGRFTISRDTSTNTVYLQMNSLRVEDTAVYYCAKGRAAGTFDSWGQGTLVTVSS -> 5.2 nM (3 of 3 replicates)
- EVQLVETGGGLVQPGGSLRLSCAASGFTLNSYGISWVRQAPGKGPEWVSVIYSDGRRTKYGDSVRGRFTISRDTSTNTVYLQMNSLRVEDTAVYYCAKGRAAGTFDSWGQGTLVTVSS -> 1.4 µM (3 of 3 replicates)
- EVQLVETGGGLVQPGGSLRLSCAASWFTLNSYGISWVRQAPGKGPEWVSVIYSDGRRTIYGDNVKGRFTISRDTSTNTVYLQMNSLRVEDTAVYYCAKGRAAGTFDSWGQGTLVTVSS -> no signal (0 of 3 replicates)
- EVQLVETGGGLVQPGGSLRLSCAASGFTLNSYGISWVRQAPGKGPEWVSVIYSDGRGTVYGDSVKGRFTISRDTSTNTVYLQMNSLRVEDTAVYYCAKIRAAGTFDSWGQGTLVTVSS -> no signal (0 of 3 replicates)
- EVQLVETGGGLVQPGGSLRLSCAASGFTLQSYGISWVRQAPGKGPEWVSVIYSDGRNTMYGDSVKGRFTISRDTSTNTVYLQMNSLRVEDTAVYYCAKGRAAGTFDSWGQGTLVTVSS -> no signal (0 of 3 replicates)
- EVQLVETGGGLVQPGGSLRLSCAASGFTLRSYGLSWVRQAPGKGPEWVSVIYSDGRRTYYGDSVKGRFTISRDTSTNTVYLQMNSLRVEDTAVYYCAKGRAAGTFDSWGQGTLVTVSS -> no signal (0 of 3 replicates)
- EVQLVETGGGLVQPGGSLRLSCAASGFTLNSYGISWVRQAPGKGPEWVSVIYSDGRRTGYYDSVKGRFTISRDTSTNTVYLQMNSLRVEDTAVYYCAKGHAAGTFDSWGQGTLVTVSS -> 3.8 nM (3 of 3 replicates)
- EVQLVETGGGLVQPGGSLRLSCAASGFTLNSYGISWVRQAPGKGPEWVSVIYSDGRRTMYGLSVKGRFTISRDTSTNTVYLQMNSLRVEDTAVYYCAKGRAAGGFDSWGQGTLVTVSS -> 2.2 µM (2 of 3 replicates)
- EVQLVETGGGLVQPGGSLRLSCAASGFTLNSYGISWVRQAPGKGPEWVSVIYSDGRRTIYGDSVKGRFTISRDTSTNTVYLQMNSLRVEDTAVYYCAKGPAAGTFDSWGQGTLVTVSS -> 1.4 µM (2 of 3 replicates)
- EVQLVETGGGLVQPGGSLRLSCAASGFWLNSYGISWVRQAPGKGPEWVSVAYSDGRRTYYGDSVKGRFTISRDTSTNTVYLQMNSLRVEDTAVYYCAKGRAAGTFDSWGQGTLVTVSS -> no signal (0 of 3 replicates)
- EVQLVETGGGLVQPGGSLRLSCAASGFTLNCYGISWVRQAPGKGPEWVSVIYSDGRRTSYGDSVKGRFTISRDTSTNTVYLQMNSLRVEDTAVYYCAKGRAAGTFDSWGQGTLVTVSS -> 320 nM (3 of 3 replicates)
- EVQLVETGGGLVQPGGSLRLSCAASGFTLNSYGISWVRQAPGKGPEWVSVIYSDGRRTIYGDSVKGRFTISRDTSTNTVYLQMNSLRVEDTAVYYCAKGRAATTYDSWGQGTLVTVSS -> 120 µM (2 of 3 replicates)
- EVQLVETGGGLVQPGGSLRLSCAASGFTLNSYGISWVRQAPGKGPEWVSVIYSDGRGTMYGDSFKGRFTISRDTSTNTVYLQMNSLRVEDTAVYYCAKGRAAGTFDSWGQGTLVTVSS -> 14 µM (1 of 3 replicates)
- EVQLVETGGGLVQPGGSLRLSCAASGFTLNSYGISWVRQAPGKGPEWVSSIYSDGRRTCYGDSVKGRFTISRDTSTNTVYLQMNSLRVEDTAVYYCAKGRAAGTFDFWGQGTLVTVSS -> no signal (0 of 3 replicates)
- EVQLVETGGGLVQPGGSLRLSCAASGFTVNSYGISWVRQAPGKGPEWVSVIYSDVRRTCYGDSVKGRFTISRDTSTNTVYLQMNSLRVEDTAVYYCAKGRAAGTFDSWGQGTLVTVSS -> 14 µM (1 of 3 replicates)
- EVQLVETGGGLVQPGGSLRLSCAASGFCLNSYGISWVRQAPGKGPEWVSEIYSDGRRTVYGDSVKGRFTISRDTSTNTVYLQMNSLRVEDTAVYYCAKGRAAGTFDSWGQGTLVTVSS -> no signal (0 of 3 replicates)
- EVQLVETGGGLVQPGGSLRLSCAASGTTLNSYGISWVRQAPGKGPEWVSDIYSDGRRTMYGDSVKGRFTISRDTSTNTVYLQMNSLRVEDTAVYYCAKGRAAGTFDSWGQGTLVTVSS -> 17 µM (2 of 3 replicates)
- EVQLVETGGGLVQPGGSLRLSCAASGFTLNSYGIFWVRQAPGKGPEWVSVIYSDGRRTVYGDSVNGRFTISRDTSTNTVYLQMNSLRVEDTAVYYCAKGRAAGTFDSWGQGTLVTVSS -> 8.2 µM (2 of 3 replicates)

Picked from the list: the 3 lowest averages where every replicate gave a value.

{"VH": "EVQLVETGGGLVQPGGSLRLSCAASGFTLNSYGISWVRQAPGKGPEWVSVIYSDGRRTGYYDSVKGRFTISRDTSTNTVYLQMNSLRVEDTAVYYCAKGHAAGTFDSWGQGTLVTVSS", "apparent Kd": "3.8 nM", "seen in": "3 of 3"}
{"VH": "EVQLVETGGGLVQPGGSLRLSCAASGFTLNSYGWSWVRQAPGKGPEWVSVIYSDGRRTVYGDSVKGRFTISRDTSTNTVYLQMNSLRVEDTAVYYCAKGRAAGTFDSWGQGTLVTVSS", "apparent Kd": "5.2 nM", "seen in": "3 of 3"}
{"VH": "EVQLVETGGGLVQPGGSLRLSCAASGFTLNSYGLSWVRQAPGKGPEWVSVIYSDGRRTAYGDSVKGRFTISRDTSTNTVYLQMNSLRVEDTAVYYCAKGRAAGTQDSWGQGTLVTVSS", "apparent Kd": "27 nM", "seen in": "3 of 3"}

Parent in this assay: reference entry 4.4 nM, copy in this library 13 µM (one replicate of three).